We go through 1 molecule from patent US6900050 (ROCKEFELLER UNIVERSITY, dated 2005).

The target in assay [1] is T1, TRAF2 expressed in 293 cells (UniProt P39429 1-501).
T1 construct: Called a homo-oligomer; also called TRAF2 homo-oligomer
T1 sequence (looked up): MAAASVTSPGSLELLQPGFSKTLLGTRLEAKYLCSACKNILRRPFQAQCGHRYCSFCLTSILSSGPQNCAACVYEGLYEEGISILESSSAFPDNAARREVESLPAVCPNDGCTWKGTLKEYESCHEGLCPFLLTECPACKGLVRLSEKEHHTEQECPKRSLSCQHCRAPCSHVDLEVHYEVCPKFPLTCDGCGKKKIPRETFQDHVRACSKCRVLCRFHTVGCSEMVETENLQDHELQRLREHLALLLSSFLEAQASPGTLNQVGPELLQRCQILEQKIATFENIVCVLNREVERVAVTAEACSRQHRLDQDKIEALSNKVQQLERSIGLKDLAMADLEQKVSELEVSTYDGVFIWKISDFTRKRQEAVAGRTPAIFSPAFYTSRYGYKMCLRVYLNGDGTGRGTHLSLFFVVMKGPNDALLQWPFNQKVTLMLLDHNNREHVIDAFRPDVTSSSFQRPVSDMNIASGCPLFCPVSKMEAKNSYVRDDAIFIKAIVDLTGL
Put plainly: glutathione-Sepharose coprecipitation from 293 cells, Western blot (control). Here is the method: (§1) Cell lysates were precipitated with glutathione-Sepharose beads, and analyzed by Western blot analysis with anti-TRAF1 or anti-TRAF2 antibodies. The 293 cells were transfected with various combinations of expression vectors and thirty-six hours after transfection, cells were harvested in phosphate-buffered saline/1 mM phenylmethylsulfonyl fluoride, pelleted, and lysed in lysis buffer (20 mM Hepes (pH 7.9), 100 mM KCl, 300 mM NaCl, 10 mM EDTA, 0.1% NP-40, plus protease inhibitors). After lysis, aliquots of cell lysates were incubated with glutathione-Sepharose (Pharmacia) for 2 hr at 4° C. […]
(§2) However, since the interaction of TRAFs with the cognate members of the TNFR superfamily is mediated through the TRAF-C domain rather than the entire TRAF domain, it was-important to determine whether TRIP can indirectly interact with the receptors through TRAFs. […] Cell lysates were precipitated with glutathione-Sepharose beads, and analyzed on Western blots with anti-HA, anti-TRAF1, and anti-TRAF2 antibodies. […]
(§3) Aliquots of cell lysates were subjected for purification with glutathione-Sepharose beads as described in Experimental Procedures. Proteins coprecipitated with GST-fusion proteins were analyzed by Western analysis with an anti-HA mAb (12CA5), and anti-TRAF1- or anti-TRAF2-polyclonal antibodies.

In assay [2] the target is T2, TRAF1 expressed in 293 cells (UniProt P39428 1-409).
T2 construct: Called a homo-oligomer; also called TRAF1 homo-oligomer; TRAF1 oligomer
T2 sequence (looked up): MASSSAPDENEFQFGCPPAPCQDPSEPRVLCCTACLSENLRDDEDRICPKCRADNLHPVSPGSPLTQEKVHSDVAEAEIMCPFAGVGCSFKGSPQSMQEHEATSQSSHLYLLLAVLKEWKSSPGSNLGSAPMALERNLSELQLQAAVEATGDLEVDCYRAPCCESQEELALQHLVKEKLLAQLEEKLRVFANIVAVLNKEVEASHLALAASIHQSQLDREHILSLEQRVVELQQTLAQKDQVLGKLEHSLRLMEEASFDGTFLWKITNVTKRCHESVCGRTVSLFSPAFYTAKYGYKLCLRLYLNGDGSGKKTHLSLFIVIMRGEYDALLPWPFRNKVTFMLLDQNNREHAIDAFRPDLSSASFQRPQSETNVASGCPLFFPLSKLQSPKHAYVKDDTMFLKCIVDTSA
Described as above. Here is the method:
as §1, §2, §3

B1: GST alone (control) (other, UniProt P08515 1-218, looked up)
chain: MSPILGYWKIKGLVQPTRLLLEYLEEKYEEHLYERDEGDKWRNKKFELGLEFPNLPYYIDGDVKLTQSMAIIRYIADKHNMLGGCPKERAEISMLEGAVLDIRYGVSRIAYSKDFETLKVDFLSKLPEMLKMFEDRLCHKTYLNGDHVTHPDFMLYDALDVVLYMDPMCLDAFPKLVCFKKRIEAIPQIDKYLKSSKYIAWPLQGWQATFGGGDHPPK
notes: Control for the glutathione-Sepharose coprecipitations; also called GST proteins
With B1, the binding result in assay [1] and in assay [2] was “no binding” in each case.
